The record followed here is PubChem BioAssay AID488837 (National Center for Advancing Translational Sciences (NCATS), 2010).

Protein sequences, listed by entry. Tags and fused reporters are not part of them. Lines headed by an entry give the natural chain unless they say otherwise; changes in a name come on top.
UniProt O00167: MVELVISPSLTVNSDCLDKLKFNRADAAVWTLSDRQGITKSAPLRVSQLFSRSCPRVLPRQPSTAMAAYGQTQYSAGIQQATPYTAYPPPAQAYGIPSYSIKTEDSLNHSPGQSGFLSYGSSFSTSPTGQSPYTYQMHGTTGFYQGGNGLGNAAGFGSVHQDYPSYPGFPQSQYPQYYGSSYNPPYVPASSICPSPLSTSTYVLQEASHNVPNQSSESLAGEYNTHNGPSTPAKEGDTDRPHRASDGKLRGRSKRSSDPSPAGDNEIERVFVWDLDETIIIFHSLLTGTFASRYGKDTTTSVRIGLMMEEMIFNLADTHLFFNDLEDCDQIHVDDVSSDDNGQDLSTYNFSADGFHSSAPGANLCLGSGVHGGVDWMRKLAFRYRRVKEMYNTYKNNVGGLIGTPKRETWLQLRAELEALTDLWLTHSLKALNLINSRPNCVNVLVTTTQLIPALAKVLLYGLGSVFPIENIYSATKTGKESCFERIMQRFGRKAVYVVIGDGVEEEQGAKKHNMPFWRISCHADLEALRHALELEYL

“And” between values parts separate entries of the source, which are not always exact repeats. Equal entries are not always repeated. This is a selection; strong and weak results do not stand in their true shares. The source made the active and inactive calls. Calls follow the shape of the dose curve; as a rule, active = well fitted inhibition curve with a large enough effect; inconclusive = small, poorly fitted or top-dose-only effect, or effect the other way; inactive = flat fitted curve, though single readings scatter.
% is scaled to controls: 0 for no effect and ±100 for the full control effect.

The assay has as its target Protein phosphatase EYA2 (Homo sapiens) (UniProt O00167). Put plainly: qHTS Assay for Inhibitors of the Phosphatase Activity of Eya2. The conditions noted are these: recombinant Eya2, OMFP fluorescence dephosphorylation (OMFP is methylfluorescein phosphate); at 76.9 µM (top of the series) unless noted. An excerpt: The Eya family of proteins are essential co-activators of the Six1 transcription factor. Six1 is a developmental gene that is abnormally re-expressed in a large percentage of breast cancers. This over-expression plays a causal role in the initiation and metastatic development of breast cancers. The Eya family of proteins was also found to contain a unique HAD phosphatase domain with protein tyrosine phosphatase activity which can potentially play a role in Six1-mediated breast tumorigenesis. […] We have developed and optimized a 1536 well fluorescence-based HTS assay targeting the phosphatase activity of Eya2. Inhibitors found against Eya2 could serve as potential therapeutic tools to inhibit Six1-mediated breast tumorigenesis and to increase the efficiency of radiation and certain chemo therapy. These inhibitors could also be used as chemical probes to study the function of Eya2's phosphatase activity and its role in Six1-mediated breast tumorigenesis.
The Eya2 enzyme was kindly provided by the laboratory of Dr. Rui Zhao. The 3-O-methyl-fluorescein phosphate (OMFP) substrate and all buffer reagents were purchased from Sigma Aldrich. qHTS Assay Setup: 1. Buffer- 50 mM HEPES pH 7.5, 50 mM NaCl, 5 uM MgCl2, 0.05% BSA, 1 mM DTT. 2. OMFP Stock- 10 mM solution prepared in 100% DMSO and stored in single use aliquots at -20C. Assay Procedure- 1. Dispense 1.5 ul per well of Eya2 at 0.2 uM in black medium binding 1536 well Greiner plate 2. Transfer 23 nl of compound and control compound (EGTA) to plate 3. Incubate at ambient for 10 minutes 4. Dispense 1.5 ul per well of OMFP at 50 uM 5. Incubate at ambient for 10 minutes 6. Read on ViewLux using Excitation = 485 nm, Emission = 525 nm
`Nc1cccc([As](=O)(O)c2ccccc2)c1`: the activity, negative = inhibition is inactive: -0.0303%.

As for `CS(=O)(=O)c1cc([N+](=O)[O-])c2no[n+]([O-])c2c1`, the activity, negative = inhibition was inactive: 8.86%.

Take `CCOP1(=S)c2c(C)nn(CCC#N)c2N=C(c2ccccc2F)N1C` (centres undefined): the activity, negative = inhibition was inactive: 12.8%.

As for `O=P(Nc1nccs1)(c1ccccc1)c1nc2ccccc2s1` (centres undefined), the activity, negative = inhibition was inactive: -1.18%.

As to `O=P(Nc1nccs1)(Oc1ccccc1)Oc1ccccc1`, the activity, negative = inhibition was inactive: 7.38%.

As to `O=C(O)COc1ccc([As](=O)(O)O)cc1[N+](=O)[O-]`, the activity, negative = inhibition was inactive: -26.3%.

With `Nc1ccccc1[As](=O)(O)c1ccccc1`, the activity, negative = inhibition is inactive: -27%.

Consider `NC(=O)Nc1ccc([As](=O)(O)O)cc1`, for which the activity, negative = inhibition is inactive: 4.76%.

On to `O=[N+]([O-])c1ccc2c(c1)nnn2O`, for which the activity, negative = inhibition was inactive: 11.5%.

For the compound `N#CCCN(C(=O)COC(=O)C(O)(c1ccccc1)c1ccccc1)c1ccc(F)cc1`, the activity, negative = inhibition was inactive: 20.2%.

Consider `CN(C(=O)Cc1ccccc1)[C@@H]1CC[C@]2(CCCO2)C[C@H]1N1CCCC1`, for which the activity, negative = inhibition was inactive: 8.09% and inactive: -7.42%.

`CCOP1(=S)c2c(C)nn(CCC#N)c2N=C(c2ccc(F)cc2)N1C` (centres undefined): the activity, negative = inhibition is inactive: -6.99% [at 15.4 µM].

As to `COc1cc(C(=O)NCC2(N3CCOCC3)CCCCC2)cc(Cl)c1OC(C)C`, the activity, negative = inhibition was inactive: 3.64%.

As to `O=[As](O)(O)c1cccnc1`, the activity, negative = inhibition is inactive: -15.6%.

`CS(=O)(=O)c1ccc(Cl)c(NC(=O)COC(=O)C(O)(c2ccccc2)c2ccccc2)c1`: the activity, negative = inhibition is inactive: -2.12%.

On to `CN(C(=O)Cc1ccc(Cl)c(Cl)c1)[C@@H]1CC[C@]2(CCCO2)C[C@H]1N1CCCC1`, for which the activity, negative = inhibition was inactive: 2.27%.

In the case of `O=[As](O)(c1cccc(O)c1)c1cccc(O)c1`, the activity, negative = inhibition was inactive: 9.48%.

`CCCOP(=S)(Nc1nc(N)cc(=O)[nH]1)OCCC`: the activity, negative = inhibition is inactive: 25.7%.

`Cc1ccc(NCCc2c([N+](=O)[O-])cc([N+](=O)[O-])cc2[N+](=O)[O-])cc1`: the activity, negative = inhibition was inactive: 2.02%.

In the case of `COc1cc(C2NCCC3(OCCO3)C2(C)C)cc(OC)c1OC` (centres undefined), the activity, negative = inhibition is inactive: -5.71%.

For `CCOP(=O)(Nc1cccc2ccccc12)OCC`, the activity, negative = inhibition was inactive: -1.91%.

Regarding `O=P1(Nc2nc3ccc(Cl)cc3s2)COc2ccccc2O1` (centres undefined), the activity, negative = inhibition was inactive: -2.61%.

As for `CCOc1ccc(C2=NCC(CBr)S2)cc1` (centres undefined), the activity, negative = inhibition was inactive: 1.36%.

With `CC(C)(C)C(=O)NC(Sc1ccccc1)C(Cl)(Cl)Cl` (centres undefined), the activity, negative = inhibition was inactive: 3.82%.

`CC(=O)c1ccc(N2CC2c2ccncc2)cc1` (centres undefined): the activity, negative = inhibition is inactive: 0.743%.

Consider `Cc1ccccc1CN(C)C(=O)COC(=O)C(O)(c1ccccc1)c1ccccc1`, for which the activity, negative = inhibition is inactive: -2.46%.

On to `C[C@@H]1C=CCP(=O)(Oc2ccccc2)O1` (some centres undefined), for which the activity, negative = inhibition was inactive: -11.4%.

In the case of `C[C@H]1OP(=O)(Oc2ccccc2)C[C@@H]2O[C@@H]21` (some centres undefined), the activity, negative = inhibition was inactive: -14%.

In the case of `CC(=O)Nc1ccc(Oc2c([N+](=O)[O-])cc([N+](=O)[O-])cc2[N+](=O)[O-])cc1`, the activity, negative = inhibition was inactive: 9.4%.

As for `O=C(NC1CCS(=O)(=O)C1)NP(=S)(Oc1ccccc1)Oc1ccccc1` (centres undefined), the activity, negative = inhibition was inactive: -7.52%.

For `CCNC(=S)/N=C(\N)N[N+](=O)[O-]`, the activity, negative = inhibition was inactive: 1.66%.

`c1ccc(-c2nn[nH]n2)c(-c2nn[nH]n2)c1`: the activity, negative = inhibition is inactive: 13.5%.

With `Cc1ccc(NP(=O)(Oc2cccc(C)c2)Oc2cccc(C)c2)nc1`, the activity, negative = inhibition was inactive: 5.38%.

On to `CCOC(=O)NC(Sc1ccccc1)C(Cl)(Cl)Cl` (centres undefined), for which the activity, negative = inhibition is inactive: 6.96%.

`COC(=O)c1cc2c(s1)N=C(c1ccccc1)N(C)P2(=O)N1CCOCC1` (centres undefined): the activity, negative = inhibition is inactive: 6.09%.

On to `CC(=O)NC(SC(=S)N(CC(C)C)CC(C)C)C(Cl)(Cl)Cl` (centres undefined), for which the activity, negative = inhibition was inactive: 3.48%.

Take `Cc1ccc(OP(=O)(Nc2ccccn2)Oc2ccc(C)cc2)cc1`: the activity, negative = inhibition is inactive: -7.29%.

`O=C(OC1CN2CCC1CC2)c1ccccc1` (centres undefined): the activity, negative = inhibition was inactive: -5.64%.

With `CN(C(=O)Cc1ccc(Cl)c(Cl)c1)[C@@H]1CCCC[C@@H]1N1CCCC1`, the activity, negative = inhibition is inactive: -1.97%.

As for `CCC(=O)N1C2C3N(C(=O)CC)C1C1N(C(=O)CC)C(C(N1C(=O)CC)N3C(=O)CC)N2C(=O)CC`, the activity, negative = inhibition is inactive: 6.73%.

Consider `CC(NC(=O)COC(=O)C(O)(c1ccccc1)c1ccccc1)c1ccccc1` (centres undefined), for which the activity, negative = inhibition is inactive: 0.101%.

In the case of `CN(C)C(=O)Oc1noc2ccccc12`, the activity, negative = inhibition was inactive: -1.23%.

For `O=c1c2cc([N+](=O)[O-])ccc2[nH]c2c([N+](=O)[O-])cc([N+](=O)[O-])cc12`, the activity, negative = inhibition was inactive: 1.45%.

In the case of `CN(C)C1(CNC(=O)c2ccc(Cl)c(S(N)(=O)=O)c2)CCCCC1`, the activity, negative = inhibition was inactive: 3.72%.

With `O=P(Nc1ccccn1)(c1ccc(Br)cc1)c1ccc(Br)cc1`, the activity, negative = inhibition is inactive: -4.38%.

Turning to `O=P(Nc1nc2ccccc2s1)(c1ccccc1)c1ccccc1`, the activity, negative = inhibition was inactive: -21.9%.

Take `C[C@H]1OP(=O)(Oc2ccccc2)[C@H](O)[C@H](O)[C@H]1N=[N+]=[N-]` (some centres undefined): the activity, negative = inhibition was inactive: -6.14%.

As for `CC(=O)NC(SC(=S)N(C)C)C(Cl)(Cl)Cl` (centres undefined), the activity, negative = inhibition is inactive: 10.3%.

As for `O=[N+]([O-])c1ncn(CCn2cnc([N+](=O)[O-])n2)n1`, the activity, negative = inhibition was inactive: 8.26%.
